pIC50, pKi: −log10 of the molar value.

Chains of the proteins cited; added tags and fusions are not shown.
UniProt P11712, whole entry: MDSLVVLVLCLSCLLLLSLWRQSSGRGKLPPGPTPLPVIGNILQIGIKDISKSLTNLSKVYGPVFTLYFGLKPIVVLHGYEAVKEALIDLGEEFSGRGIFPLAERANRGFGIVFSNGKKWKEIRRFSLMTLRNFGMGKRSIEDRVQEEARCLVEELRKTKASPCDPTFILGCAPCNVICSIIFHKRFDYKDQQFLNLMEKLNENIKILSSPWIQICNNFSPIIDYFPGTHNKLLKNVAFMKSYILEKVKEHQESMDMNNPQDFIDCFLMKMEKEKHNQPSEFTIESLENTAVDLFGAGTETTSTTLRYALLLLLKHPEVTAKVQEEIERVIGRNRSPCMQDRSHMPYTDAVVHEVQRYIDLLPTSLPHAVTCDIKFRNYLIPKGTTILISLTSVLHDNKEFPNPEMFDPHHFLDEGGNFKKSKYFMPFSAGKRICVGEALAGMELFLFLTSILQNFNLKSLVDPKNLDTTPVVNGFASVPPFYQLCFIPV
UniProt P05177, whole entry: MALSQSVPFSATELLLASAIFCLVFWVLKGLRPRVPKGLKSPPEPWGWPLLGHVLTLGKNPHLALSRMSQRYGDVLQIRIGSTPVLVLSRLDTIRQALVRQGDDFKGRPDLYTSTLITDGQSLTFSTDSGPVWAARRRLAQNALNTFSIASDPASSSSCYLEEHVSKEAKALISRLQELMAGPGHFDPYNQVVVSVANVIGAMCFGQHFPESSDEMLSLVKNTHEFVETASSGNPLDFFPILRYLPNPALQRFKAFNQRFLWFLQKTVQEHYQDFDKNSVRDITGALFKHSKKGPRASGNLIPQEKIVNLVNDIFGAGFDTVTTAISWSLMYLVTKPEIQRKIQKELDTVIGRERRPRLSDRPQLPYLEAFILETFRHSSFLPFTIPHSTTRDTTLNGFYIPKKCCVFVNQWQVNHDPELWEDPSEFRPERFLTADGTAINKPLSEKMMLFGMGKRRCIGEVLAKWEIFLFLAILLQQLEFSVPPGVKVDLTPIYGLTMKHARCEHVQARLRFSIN
UniProt P08684, whole entry: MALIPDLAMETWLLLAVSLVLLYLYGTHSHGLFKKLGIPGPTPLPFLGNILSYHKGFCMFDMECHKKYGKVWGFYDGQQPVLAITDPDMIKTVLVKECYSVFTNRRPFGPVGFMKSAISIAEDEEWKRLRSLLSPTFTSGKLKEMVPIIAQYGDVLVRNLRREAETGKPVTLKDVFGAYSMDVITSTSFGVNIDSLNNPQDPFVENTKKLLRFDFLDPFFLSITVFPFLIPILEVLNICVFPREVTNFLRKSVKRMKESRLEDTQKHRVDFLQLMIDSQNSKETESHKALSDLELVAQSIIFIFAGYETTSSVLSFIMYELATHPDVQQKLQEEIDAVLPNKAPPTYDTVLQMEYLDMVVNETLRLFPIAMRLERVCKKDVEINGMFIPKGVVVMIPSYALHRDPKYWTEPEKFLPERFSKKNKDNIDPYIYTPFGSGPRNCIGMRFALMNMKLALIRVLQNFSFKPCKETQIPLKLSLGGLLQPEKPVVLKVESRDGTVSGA
UniProt P33261, whole entry: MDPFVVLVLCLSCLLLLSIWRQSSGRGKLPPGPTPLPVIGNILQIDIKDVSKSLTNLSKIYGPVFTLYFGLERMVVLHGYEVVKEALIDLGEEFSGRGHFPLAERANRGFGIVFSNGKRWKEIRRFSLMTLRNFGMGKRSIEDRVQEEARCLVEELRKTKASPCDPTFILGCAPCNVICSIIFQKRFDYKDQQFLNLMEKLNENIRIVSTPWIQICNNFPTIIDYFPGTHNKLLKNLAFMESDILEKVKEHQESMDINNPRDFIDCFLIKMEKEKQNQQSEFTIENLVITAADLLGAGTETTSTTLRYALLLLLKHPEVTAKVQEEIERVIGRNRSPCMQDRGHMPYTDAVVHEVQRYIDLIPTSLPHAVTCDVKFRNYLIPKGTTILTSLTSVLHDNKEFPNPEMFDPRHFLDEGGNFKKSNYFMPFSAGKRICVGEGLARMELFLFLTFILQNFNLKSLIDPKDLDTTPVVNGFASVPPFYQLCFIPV
UniProt P10635, whole entry: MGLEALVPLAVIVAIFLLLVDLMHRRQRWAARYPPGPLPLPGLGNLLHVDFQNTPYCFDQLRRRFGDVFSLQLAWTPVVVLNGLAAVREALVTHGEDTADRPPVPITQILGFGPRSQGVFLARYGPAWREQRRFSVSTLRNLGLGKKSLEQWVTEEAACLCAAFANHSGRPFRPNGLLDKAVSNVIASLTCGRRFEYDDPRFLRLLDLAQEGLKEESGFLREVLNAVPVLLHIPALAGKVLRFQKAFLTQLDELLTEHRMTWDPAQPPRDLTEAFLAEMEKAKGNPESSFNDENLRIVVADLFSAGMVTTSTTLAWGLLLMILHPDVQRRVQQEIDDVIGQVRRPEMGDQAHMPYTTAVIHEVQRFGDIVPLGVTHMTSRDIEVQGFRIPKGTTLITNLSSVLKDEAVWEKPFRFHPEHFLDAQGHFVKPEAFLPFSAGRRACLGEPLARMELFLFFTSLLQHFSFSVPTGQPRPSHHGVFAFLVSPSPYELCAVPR

A short description of data set [1]: Bidirectional permeability across Caco-2 cell monolayers. To be noted: human, Caco-2, pH 7.4. For orientation: Passage across Caco-2 layers is used to estimate intestinal permeability.
Another data set addresses CYP2C9 (Homo sapiens, UniProt P11712). Kind of data set: Cytochrome P450 inhibition in human liver microsomes.
For the next data set, the target named is CYP1A2 (Homo sapiens, UniProt P05177). Described as above.
For a further data set, the target named is CYP3A4 (Homo sapiens, UniProt P08684). Described as above. Particulars: for pIC50: highest concentration tested 20 µM; for pKi: human liver microsomes. Background: Liver microsomes are a subcellular fraction often used to study metabolism.
A further data set addresses CYP2C19 (Homo sapiens, UniProt P33261). The description is as above.
The target of another data set is CYP2D6 (Homo sapiens, UniProt P10635). Described as above.

What is called efflux ratio is a quotient of directional permeabilities that is used to spot active efflux. On to `CC[C@H]1OC(=O)[C@H](C)[C@@H](O[C@H]2C[C@@](C)(OC)[C@@H](O)[C@H](C)O2)[C@H](C)[C@@H](O[C@@H]2O[C@H](C)C[C@H](N(C)C)[C@H]2O)[C@](C)(O)C[C@@H](C)CN(C)[C@H](C)[C@@H](O)[C@]1(C)O` [Azithromycin], for which the efflux ratio in data set [1] is 33.

As a reminder, the pIC50 is −log10 of the IC50, conventionally taken in molar units. A low value points to a large IC50. By pKi is commonly meant the Ki on a negative log10 scale, so that one unit is a factor of ten. A higher pKi goes with a small Ki. As for `CC1(C)c2nc(-c3ccc(F)cc3)c(Nc3ccc(F)cc3)n2CCN1C(=O)CN` [KAF156], the negative logarithm of the IC50 (pIC50) on CYP2C9 is 4.72; against CYP1A2, less than 4.70; at CYP3A4 (CYP3A4 (midaz) IC50, human liver microsomes, CYP3A4 (midaz)) it was 5.60; at CYP3A4 (CYP3A4 (test) IC50, human liver microsomes, CYP3A4 (test)), 5.57; against CYP2C19 it was less than 4.70; against CYP2D6 it was 5.92. The negative-log Ki (pKi) on CYP2C9 was 4.85; at CYP3A4 (CYP3A4 (midaz) Ki, CYP3A4 (midaz)), 5.74; on CYP3A4 (CYP3A4 (test) Ki, CYP3A4 (test)), 5.80; on CYP2D6 it was 6.12.

Take `COc1cc(NC(C)CCCN)c2ncccc2c1` (stereo not drawn) [Primaquine]: the pIC50 on CYP2C9 is less than 4.70; at CYP1A2, greater than 6.60; against CYP2C19 it was less than 4.70; against CYP2D6 it was less than 4.70. This compound had a pKi on CYP1A2 greater than 6.82.

As for `CCc1nc(N)nc(N)c1-c1ccc(Cl)cc1` [Pyrimethamine], the negative-log IC50 (pIC50) at CYP2C9 and against CYP2C19 was less than 4.70 each time.

(Values after paper PMC6941357, “An in vitro toolbox to accelerate anti-malarial drug discovery and development” (Malaria Journal, 2020).)
